Assay results published in ChEMBL document CHEMBL5543100 (Eur J Med Chem, 2024).

Assays:
[1] = system: OS-RC-2; assay: Reversal of sorafenib resistance in human OS-RC-2 cells assessed as optical density at 450 nm at 15 uM incubated for 24 hrs in presence of 9 uM sorafenib by microplate reader analysis (reference value: 1.094 to 1.099); assay type: functional
[2] = system: OS-RC-2; assay: Reversal of sorafenib resistance in human OS-RC-2 cells assessed as optical density at 450 nm at 45 uM incubated for 24 hrs in presence of 12 uM sorafenib by microplate reader analysis (reference value: 0.776 to 0.944); assay type: functional
[3] = system: OS-RC-2; assay: Reversal of sorafenib resistance in human OS-RC-2 cells assessed as optical density at 450 nm at 30 uM incubated for 24 hrs in presence of 6 uM sorafenib by microplate reader analysis (reference value: 1.025 to 1.182); assay type: functional
[4] = system: OS-RC-2; assay: Reversal of sorafenib resistance in human OS-RC-2 cells assessed as optical density at 450 nm at 45 uM incubated for 24 hrs in presence of 24 uM sorafenib by microplate reader analysis (reference value: 0.414 to 0.448); assay type: functional
[5] = system: OS-RC-2; assay: Antiproliferative activity against human OS-RC-2 cells assessed as optical density at 450 nm at 45 uM incubated for 24 hrs by CCK-8 assay (reference value: 1.501 to 1.613); assay type: functional
[6] = system: OS-RC-2; assay: Reversal of sorafenib resistance in human OS-RC-2 cells assessed as optical density at 450 nm at 30 uM incubated for 24 hrs in presence of 3 uM sorafenib by microplate reader analysis (reference value: 1.288 to 1.358); assay type: functional
[7] = system: OS-RC-2; assay: Reversal of sorafenib resistance in human OS-RC-2 cells assessed as optical density at 450 nm at 45 uM incubated for 24 hrs in presence of 27 uM sorafenib by microplate reader analysis (reference value: 0.316 to 0.328); assay type: functional
[8] = system: OS-RC-2; assay: Reversal of sorafenib resistance in human OS-RC-2 cells assessed as optical density at 450 nm at 45 uM incubated for 24 hrs in presence of 21 uM sorafenib by microplate reader analysis (reference value: 0.477 to 0.526); assay type: functional
[9] = system: OS-RC-2; assay: Reversal of sorafenib resistance in human OS-RC-2 cells assessed as optical density at 450 nm at 30 uM incubated for 24 hrs in presence of 15 uM sorafenib by microplate reader analysis (reference value: 0.645 to 0.850); assay type: functional
[10] = system: OS-RC-2; assay: Reversal of sorafenib resistance in human OS-RC-2 cells assessed as optical density at 450 nm at 30 uM incubated for 24 hrs in presence of 24 uM sorafenib by microplate reader analysis (reference value: 0.414 to 0.448); assay type: functional
[11] = Toxicity in male immunodeficient BALB/c nude mouse xenografted with human OS-RC-2 cells assessed as histopathological changes in heart by measuring effect on cardiomyocyte morphology at 20 to 40 mg/kg/day, ip administered for 16 days by H and E staining based analysis; assay type: organism-based, Cardiac Muscle Cell; settings: in vivo, 384 h, dose 20-40 mg/kg/day, time 16 day
[12] = system: OS-RC-2; assay: Reversal of sorafenib resistance in human OS-RC-2 cells assessed as optical density at 450 nm at 45 uM incubated for 24 hrs in presence of 6 uM sorafenib by microplate reader analysis (reference value: 1.025 to 1.182); assay type: functional
[13] = system: OS-RC-2; assay: Reversal of sorafenib resistance in human OS-RC-2 cells assessed as optical density at 450 nm at 15 uM incubated for 24 hrs in presence of 24 uM sorafenib by microplate reader analysis (reference value: 0.414 to 0.448); assay type: functional
[14] = system: OS-RC-2; assay: Reversal of sorafenib resistance in human OS-RC-2 cells assessed as optical density at 450 nm at 45 uM incubated for 24 hrs in presence of 9 uM sorafenib by microplate reader analysis (reference value: 1.094 to 1.099); assay type: functional
[15] = system: OS-RC-2; assay: Reversal of sorafenib resistance in human OS-RC-2 cells assessed as optical density at 450 nm at 45 uM incubated for 24 hrs in presence of 15 uM sorafenib by microplate reader analysis (reference value: 0.645 to 0.850); assay type: functional
[16] = system: OS-RC-2; assay: Antiproliferative activity against human OS-RC-2 cells assessed as optical density at 450 nm at 30 uM incubated for 24 hrs by CCK-8 assay (reference value: 1.501 to 1.613); assay type: functional
[17] = system: OS-RC-2; assay: Reversal of sorafenib resistance in human OS-RC-2 cells assessed as optical density at 450 nm at 15 uM incubated for 24 hrs in presence of 3 uM sorafenib by microplate reader analysis (reference value: 1.288 to 1.358); assay type: functional
[18] = system: OS-RC-2; assay: Antiproliferative activity against human OS-RC-2 cells assessed as optical density at 450 nm at 15 uM incubated for 24 hrs by CCK-8 assay (reference value: 1.501 to 1.613); assay type: functional
[19] = system: OS-RC-2; assay: Reversal of sorafenib resistance in human OS-RC-2 cells assessed as optical density at 450 nm at 45 uM incubated for 24 hrs in presence of 3 uM sorafenib by microplate reader analysis (reference value: 1.288 to 1.358); assay type: functional
[20] = system: OS-RC-2; assay: Reversal of sorafenib resistance in human OS-RC-2 cells assessed as optical density at 450 nm at 30 uM incubated for 24 hrs in presence of 27 uM sorafenib by microplate reader analysis (reference value: 0.316 to 0.328); assay type: functional
[21] = system: OS-RC-2; assay: Reversal of sorafenib resistance in human OS-RC-2 cells assessed as optical density at 450 nm at 15 uM incubated for 24 hrs in presence of 21 uM sorafenib by microplate reader analysis (reference value: 0.477 to 0.526); assay type: functional
[22] = system: OS-RC-2; assay: Reversal of sorafenib resistance in human OS-RC-2 cells assessed as optical density at 450 nm at 15 uM incubated for 24 hrs in presence of 12 uM sorafenib by microplate reader analysis (reference value: 0.776 to 0.944); assay type: functional
[23] = Toxicity in male immunodeficient BALB/c nude mouse xenografted with human OS-RC-2 cells assessed as histopathological changes in lung by measuring appearance of thickened alveolar septa at 20 to 40 mg/kg/day, ip administered for 16 days by H and E staining based analysis; assay type: organism-based; settings: in vivo, 384 h, dose 20-40 mg/kg/day, time 16 day
[24] = system: OS-RC-2; assay: Reversal of sorafenib resistance in human OS-RC-2 cells assessed as optical density at 450 nm at 15 uM incubated for 24 hrs in presence of 27 uM sorafenib by microplate reader analysis (reference value: 0.316 to 0.328); assay type: functional
[25] = system: OS-RC-2; assay: Reversal of sorafenib resistance in human OS-RC-2 cells assessed as optical density at 450 nm at 30 uM incubated for 24 hrs in presence of 12 uM sorafenib by microplate reader analysis (reference value: 0.776 to 0.944); assay type: functional
[26] = system: OS-RC-2; assay: Reversal of sorafenib resistance in human OS-RC-2 cells assessed as optical density at 450 nm at 15 uM incubated for 24 hrs in presence of 6 uM sorafenib by microplate reader analysis (reference value: 1.025 to 1.182); assay type: functional
[27] = system: OS-RC-2; assay: Reversal of sorafenib resistance in human OS-RC-2 cells assessed as optical density at 450 nm at 30 uM incubated for 24 hrs in presence of 21 uM sorafenib by microplate reader analysis (reference value: 0.477 to 0.526); assay type: functional
[28] = system: OS-RC-2; assay: Antitumor activity against human OS-RC-2 cells xenografted in male immunodeficient BALB/c nude mouse assessed as tumor volume at 40 mg/kg/day, ip administered for 16 days and measured every other day (reference value: 741 +/- 294.89 mm3); assay type: functional; settings: time 16 day
[29] = system: OS-RC-2; assay: Reversal of sorafenib resistance in human OS-RC-2 cells assessed as optical density at 450 nm at 15 uM incubated for 24 hrs in presence of 15 uM sorafenib by microplate reader analysis (reference value: 0.645 to 0.850); assay type: functional
[30] = system: OS-RC-2; assay: Antitumor activity against human OS-RC-2 cells xenografted in male immunodeficient BALB/c nude mouse assessed as tumor volume at 20 mg/kg/day, ip administered for 16 days and measured every other day (reference value: 741 +/- 294.89 mm3); assay type: functional; settings: time 16 day
[31] = Toxicity in male immunodeficient BALB/c nude mouse xenografted with human OS-RC-2 cells assessed as reduction in body weight at 40 mg/kg/day, ip administered for 16 days and measured every other day (reference value: 21.34 +/- 0.91 g); assay type: organism-based; settings: in vivo, 384 h, time 16 day
[32] = system: OS-RC-2; assay: Reversal of sorafenib resistance in human OS-RC-2 cells assessed as optical density at 450 nm at 30 uM incubated for 24 hrs in presence of 9 uM sorafenib by microplate reader analysis (reference value: 1.094 to 1.099); assay type: functional
[33] = system: OS-RC-2; assay: Antiproliferative activity against human OS-RC-2 cells cultured in glucose-deficient medium assessed as reduction in cell viability at 9 uM measured after 24 hrs; assay type: functional, cell-based

Cc1ccc(Nc2nc(NCCO)c3ccccc3n2)cc1
OD [1]: 0.501
OD [2]: 0.309
OD [3]: 0.562
OD [4]: 0.2
OD [5]: 0.833
OD [6]: 0.769
OD [7]: 0.184
OD [8]: 0.23
OD [9]: 0.3
OD [10]: 0.231
Activity [11]: Toxic
OD [12]: 0.419
OD [13]: 0.28
OD [14]: 0.334
OD [15]: 0.321
OD [16]: 0.925
OD [17]: 0.973
OD [18]: 1.248
OD [19]: 0.717
OD [20]: 0.186
OD [21]: 0.331
OD [22]: 0.362
Activity [23]: Toxic
OD [24]: 0.214
OD [25]: 0.334
OD [26]: 0.684
OD [27]: 0.279
Activity [28]: 414.87 mm3
OD [29]: 0.341
Activity [30]: 572.68 mm3
Activity [31]: 18.9 g
OD [32]: 0.359

CNC(=O)c1cc(Oc2ccc(NC(=O)Nc3ccc(Cl)c(C(F)(F)F)c3)cc2)ccn1 [SORAFENIB]
Activity [33]: Active

Calls of active or inactive are those of the source. The rule behind the calls is not given here.
